# Binding of CDR-mutated scFvs to a peptide of the spike HR2 region

Target peptide (SARS-CoV-2 spike, HR2 region): PDVDLGDISGINAS

Ab-95 is the parent antibody, in scFv form: VH, then the linker GGGGSGGGGSGGGGS, then VL. The heavy chain is unchanged in all variants.
VH: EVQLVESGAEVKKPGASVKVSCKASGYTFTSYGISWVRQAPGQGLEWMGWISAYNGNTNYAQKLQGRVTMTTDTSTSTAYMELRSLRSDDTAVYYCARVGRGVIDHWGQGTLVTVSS
VL: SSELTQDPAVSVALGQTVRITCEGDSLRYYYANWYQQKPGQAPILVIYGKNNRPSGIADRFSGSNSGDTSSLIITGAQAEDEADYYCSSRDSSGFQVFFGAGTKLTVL

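The starting antibody came from a phage panning campaign against this peptide. The library (AAYL52) carries one to three amino acid substitutions per variant, with no insertions or deletions. Affinity was read by AlphaSeq, a pooled yeast mating assay with surface-displayed partners. Pairs that bind mate more often; barcode pairs of the diploids are counted by sequencing. Each replicate has its own calibration line, from reference interactions of the BCL2 family. There are three technical replicates.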

Variants are written as CDR1, CDR2 and CDR3 of the light chain (limits as in the source). Parent: EGDSLRYYYAN, GKNNRPS, SSRDSSGFQVF. This list gathers variants with a substitution at S93 (VL, numbered from residue 1). Each Kd is an estimate from the mating assay, the geometric mean of the replicates in which the pair was seen; lower is stronger. Where no diploid with the target was found in any replicate, the entry reads "no signal": below detection, most likely a poor binder, though not proof of it. Three control strains display no target. For library AAYL52, 28% of the pairings with them gave a signal, with a median of 8.2 µM and one signal in twenty below 800 nM, so weak values seen in few replicates may be background. For each scFv, signals with the empty controls are counted beside the result.

- EGDSLRYYYAN, GKNNRPS, SIRDSAGFQVF = 250 nM (3 of 3 replicates; controls 3 of 9)
- EGDSLLYYYAN, PKNNRPS, SSRDSEGFQVF = 120 µM (1 of 3 replicates; controls 0 of 9)
- EGDSLRYYYAN, GKNNRPP, GSRDSNGFQVF = 110 µM (2 of 3 replicates; controls 2 of 9)
- EGDSLRYYYAH, GKNNRPS, SSEDSEGFQVF = no signal (0 of 3 replicates; controls 0 of 9)
- EGDSLRYYYAN, GKNNRPS, LSRDSQGFIVF = 6.9 µM (2 of 3 replicates; controls 2 of 9)
- EGDSLRYAYAN, LKNNRPS, SSRDSDGFQVF = 87 µM (2 of 3 replicates; controls 1 of 9)
- EGDSLRYSYAD, GKNNRPS, SSRDSPGFQVF = 730 nM (3 of 3 replicates; controls 3 of 9)
- EGASLRYYYAN, GTNNRPS, SSRDSYGFQVF = 3.5 µM (3 of 3 replicates; controls 1 of 9)
- EGISLIYYYAN, GKNNRPS, SSRDSCGFQVF = no signal (0 of 3 replicates; controls 1 of 9)
- EGDSLRYYYAN, GKNNRPS, TSRDSMGFSVF = 13 µM (3 of 3 replicates; controls 4 of 9)
- EGDSLRYYYAW, GKNNRPM, SSRDSWGFQVF = 66 µM (2 of 3 replicates; controls 5 of 9)
- EGDQLRYYYAN, GKNNRPS, SSRDSKGFQVF = no signal (0 of 3 replicates; controls 0 of 9)
- EGDSLRHYYAN, GKNNRCS, SSRDSIGFQVF = no signal (0 of 3 replicates; controls 1 of 9)
- EGDSLRYYEAN, GKNNRPS, SSRISTGFQVF = 67 nM (3 of 3 replicates; controls 3 of 9)
- EGDSLRYYYAN, GLNNRPS, NSRDSAGFQVF = no signal (0 of 3 replicates; controls 4 of 9)
- EGDSLRCYYAN, GKNARPS, SSRDSMGFQVF = 52 µM (2 of 3 replicates; controls 5 of 9)
- EGDSLRYYYWN, GKNNMPS, SSRDSRGFQVF = 2.1 µM (2 of 3 replicates; controls 3 of 9)
- EGDSLGYYYAY, GKNNRPS, SSRDSNGFQVF = no signal (0 of 3 replicates; controls 0 of 9)
- EGDSLRYYYAN, GKQNRPE, SSRDSNGFQVF = 780 nM (3 of 3 replicates; controls 3 of 9)
- EGDSLRYYYAN, GWNNRPS, SSRDSIGFQVH = 4.0 µM (1 of 3 replicates; controls 3 of 9)
- EGDSLRYYYAN, GKGNRPS, SARDSFGFQVF = 4.4 µM (3 of 3 replicates; controls 0 of 9)
- EGDSLRYYYAW, WKNNRPS, SSRDSEGFQVF = 10 µM (1 of 3 replicates; controls 4 of 9)
- EGDSLRYYYAQ, GKNNRSS, SSRDSAGFQVF = 10 µM (1 of 3 replicates; controls 1 of 9)
- ETDSLRYYYAN, GKVNRPS, SSRDSEGFQVF = 2.6 µM (2 of 3 replicates; controls 7 of 9)
- EGVSLRYYTAN, GKNNRPS, SSRDSCGFQVF = 330 nM (3 of 3 replicates; controls 5 of 9)
- EGDSLRYYYAN, GKNNRPS, SKDDSAGFQVF = 54 nM (3 of 3 replicates; controls 3 of 9)
- EGDSLRYYYAN, GKNNNPS, SSRDSKGFQVF = 1.4 µM (2 of 3 replicates; controls 3 of 9)
- EVDSLRYYYAN, GKNNRPS, SSRDSFGFQVF = 6.7 µM (2 of 3 replicates; controls 1 of 9)
- EGDSLRYYYAC, GKNNRPS, SGRDSQGFQVF = 270 µM (1 of 3 replicates; controls 2 of 9)
- EGDSLRYYKAN, GKNNRPS, SCRDSTGFQVF = 120 nM (3 of 3 replicates; controls 2 of 9)
- EGQSLRYYYAN, GKNNRPS, SSRDSAGKQVF = 14 µM (2 of 3 replicates; controls 4 of 9)

Data: MIT Lincoln Laboratory AlphaSeq set, Engelhart et al. 2022, doi:10.1038/s41597-022-01779-4, as distributed in FLAb.